Consider 8 compounds from patent publication US7271171B2, “Adenosine A3 receptor modulators” (King Pharmaceuticals Research and Development, Inc., priority 1998, dated 2007).

Chains of the proteins cited; added tags and fusions are not shown.
UniProt P0DMS8, whole entry: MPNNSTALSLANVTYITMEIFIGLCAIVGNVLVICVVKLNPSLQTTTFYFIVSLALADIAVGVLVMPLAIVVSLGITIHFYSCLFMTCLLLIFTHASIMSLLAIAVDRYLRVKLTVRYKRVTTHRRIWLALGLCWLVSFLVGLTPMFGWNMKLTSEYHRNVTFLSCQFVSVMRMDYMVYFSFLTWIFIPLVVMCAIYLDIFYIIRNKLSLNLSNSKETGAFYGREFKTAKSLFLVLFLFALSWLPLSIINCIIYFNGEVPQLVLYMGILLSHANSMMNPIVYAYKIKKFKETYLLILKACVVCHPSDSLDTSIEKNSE

Molecules are shown by their SMILES.

For assay [1], the target named is human A3 receptors expressed in HEK 293 cells (Homo sapiens, UniProt P0DMS8). Nature of the assay: biochemical.
The target in assay [2] is A3 receptor in Jurkat cell membranes (Homo sapiens, UniProt P0DMS8). Nature of the assay: biochemical.
Assay [3] concerns the target T1, adenosine A3 receptors in Jurkat cell membranes (Homo sapiens, UniProt P0DMS8).
T1 construct: endogenous in cells; host or cells: Jurkat (human T-cell leukaemia)
Nature of the assay: Saturation binding of radioligand of Compound 108, Jurkat cell membranes. As to conditions: FIG. 4, n=3.

For assay [4], the target named is T2, adenosine A3 receptors in HL60 membranes (Homo sapiens, UniProt P0DMS8).
T2 construct: endogenous in cells; host or cells: HL60 (promyelocytic human leukaemia)
Nature of the assay: Saturation binding of radioligand of Compound 108, HL60 membranes. As to conditions: FIG. 5, n=3.

Assay [5] deals with T3, human recombinant A3 adenosine receptor (Homo sapiens, UniProt P0DMS8). Nature of the assay: Human cloned A3 receptor binding, [3H] MRE3008-F20, CHO cells. To be noted: for hA1/hA3 / hA2A/hA3 / hA2B/hA3: selectivity ratio of Ki values.
Assay [6] has as its target T3, human recombinant A3 adenosine receptor. Nature of the assay: Human cloned A3 adenosine receptor binding assay, [125I]AB-MECA, HEK-293 membranes. As to conditions: for rA1/hA3 / rA2A/hA3: selectivity ratio of Ki values.

In the case of `CNC(=O)[C@H]1O[C@@H](n2cnc3c(NCc4ccc(N)c([125I])c4)ncnc32)[C@H](O)[C@@H]1O` [[^125I]AB-MECA, [^125I]N^6-(4-amino-3-iodobenzyl)adenosine-5′N-methyluronamide], the Kd in assay [1] came to 0.9 ± 0.01 nM; in assay [2], 4 nM.

In the case of `[3H]CC([3H])Cn1cc2c(nc(NC(=O)Nc3ccc(OC)cc3)n3nc(-c4ccco4)nc23)n1` (stereo not drawn) [radioligand of Compound 108, 5-[[(4-methoxyphenyl)amino]carbonyl]amino-8-(1,2-ditritiopropyl)-2-(2-furyl)-pyrazolo[4,3-e]1,2,4-triazolo[1,5-c]pyrimidine], the figures for the Kd in assay [3] and in assay [4] were 1.9 ± 0.2 nM and 1.2 ± 0.1 nM, respectively.

As for `CCN(CC)c1ccc(NC(=O)Nc2nc3nn(C)cc3c3nc(-c4ccco4)nn23)cc1` [Compound 101, N-[4-(diethylamino)phenyl]-N′-[2-(2-furyl)-8-methyl-8H -pyrazolo[4,3-e][1,2,4]triazolo[1,5-c]pyrimidin-5-yl]urea], in assay [5], the hA1/hA3 turned out to be 21.5, the hA2A/hA3 is listed as 19.4 and the hA2B/hA3 was found to be 13.0.

Take `CCCn1cc2c(nc(NC(=O)Nc3ccc(OC)cc3)n3nc(-c4ccco4)nc23)n1` [Compound 108, 5-[[(4-methoxyphenyl)amino]carbonyl]amino-8-propyl-2-(2-furyl)-pyrazolo[4, 3]-e-1 ,2,4-triazolo[1,5-c]pyrimidine]: in assay [5], the hA1/hA3 is 4150 and the hA2A/hA3 was 486.

For `CN(C)c1ccc(NC(=O)Nc2nc3nn(C)cc3c3nc(-c4ccco4)nn23)cc1.Cl` [Compound 103, N-[8-methyl-2-(2-furyl)-8H-pyrazolo[4,3-e][1,2,4]triazolo[1,5-c]pyrimidin-5-yl]-N′-[4-(dimethylamino)phenyl]urea hydrochloride], in assay [5], the hA1/hA3 is recorded as 667, the hA2A/hA3 is 667 and the hA2B/hA3 came out at 40.6.

Turning to `CCCn1cc2c(nc(NC(=O)Nc3ccc(OC)cc3)n3nc(-c4ccco4)nc23)n1` [Compound 47, 5-[[(4-Methoxyphenyl)amino]carbonyl]amino-8-propyl-2-(2-furyl)-pyrazolo[4,3-e]1,2,4-triazolo[1,5-c]pyrimidine], the “affinity and selectivity for the A3 receptor subtype (in words)” value in assay [6] (discussion of Table 1) is “high affinity and selectivity”. Also, in assay [6], the rA1/hA3 is >34,482 and the rA2A/hA3 is recorded as 6,872.

With `CCCCn1cc2c(nc(NC(=O)Nc3ccc(OC)cc3)n3nc(-c4ccco4)nc23)n1` [Compound 49, 5-[[(4-Methoxyphenyl)amino]carbonyl]amino-8-butyl-2-(2-furyl)-pyrazolo[4,3-e]1,2,4-triazolo[1,5-c]pyrimidine], in assay [6], the rA1/hA3 was 6,993 and the rA2A/hA3 is recorded as 2,163.

Consider `CCN(CC)c1ccc(NC(=O)Nc2nc3nn(C)cc3c3nc(-c4ccco4)nn23)cc1.Cl` [Compound 102, N-[8-methyl-2-(2-furyl)-8H-pyrazolo[4,3-e][1,2,4]triazolo[1,5-c]pyrimidin-5-yl]-N′-[4-(diethylamino)phenyl]urea hydrochloride], for which, in assay [5], the Ki amounted to 19 nM, the hA1/hA3 amounted to 35.8, the hA2A/hA3 came out at 31.2 and the hA2B/hA3 came to 14.5.
